The entries are a selection whose mix differs from that of the whole data set. Some tests of the compounds listed are not included; inactive here does not mean inactive elsewhere. Results filed as inconclusive are left out. The source made the active and inactive calls. The call rests on the fitted dose curve; in most records, active means well fitted inhibition curve with a large enough effect in the signal ratio, with a control signal flat (not every such curve was filed as active); inconclusive means small, poorly fitted or top-dose-only effect, or effect the other way, or a change in a side signal; inactive means no such curve, though single readings can be large or run the other way; the % refers to the signal ratio.
Each molecule was assayed against Muscleblind-like protein 1 (Homo sapiens) (UniProt Q9NR56) (assay: qHTS Assay for Inhibitors of MBNL1-poly(CUG) RNA binding). Settings: TR-FRET MBNL1-His/biotin-(CUG)12 binding, 665/545 ratio; at 57.5 µM (top of the series).
On the % scale 0 is the no-effect control and ±100 the full control effect.

Chains of the proteins cited; added tags and fusions are not shown.
UniProt Q9NR56, whole entry: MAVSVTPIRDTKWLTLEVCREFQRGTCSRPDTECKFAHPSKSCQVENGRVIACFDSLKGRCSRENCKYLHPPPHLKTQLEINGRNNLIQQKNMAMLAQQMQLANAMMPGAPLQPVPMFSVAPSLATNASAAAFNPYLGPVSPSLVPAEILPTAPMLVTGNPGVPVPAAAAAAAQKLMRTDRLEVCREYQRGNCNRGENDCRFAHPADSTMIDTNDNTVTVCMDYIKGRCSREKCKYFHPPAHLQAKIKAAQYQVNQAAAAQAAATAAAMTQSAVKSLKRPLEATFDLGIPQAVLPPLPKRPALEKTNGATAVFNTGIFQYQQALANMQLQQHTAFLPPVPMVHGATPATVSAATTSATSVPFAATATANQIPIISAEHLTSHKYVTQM

SMILES	activity change, negative = inhibition
O=C(NCC1(N2CCCCC2)CCCCC1)c1cccc(Cl)c1	inactive: 1.55%
COc1cccc(C(=O)NCC2(N3CCCCC3)CCCCC2)c1	inactive: -7.64%
COc1ccc(Cl)cc1C(=O)NCC1(N(C)C)CCCCC1	inactive: -3.22%
CN(C)C1(CNC(=O)c2ccc(Br)cc2)CCCCC1	inactive: -0.239%
CC(C)Oc1ccc(C(=O)NCC2(N(C)C)CCCCC2)cc1	inactive: -4.6%
CN(C)c1cccc(C(=O)NCC2(N(C)C)CCCCC2)c1	inactive: -9.86%
O=C(OC1CN2CCC1CC2)C(CO)(c1ccccc1)c1ccccc1 (configuration not stated)	inactive: -4.48%
Cc1ccc(C(=O)NCC2(N3CCCCC3)CCCCC2)cc1	inactive: -5.66%
CCN(CC)CC(C)C(C)OC(=O)C(O)(c1ccccc1)c1ccccc1 (configuration not stated)	inactive: 1.31%
COc1cc(SC)ccc1C(=O)NCC1(N(C)C)CCCCC1	inactive: -1.04%
CC(C)N1C(=O)CC2(CCN(CCOC(=O)C(O)(c3ccccc3)c3ccccc3)CC2)C1=O	inactive: -1.24%
CN1[C@@H]2CC[C@H]1CC(OC(=O)C(O)(c1ccccc1)c1ccccc1)C2 (some centres not stated)	inactive: -2.82%
O=C(NCC1(N2CCCCC2)CCCCC1)c1cc([N+](=O)[O-])ccc1Cl	inactive: 15.8%
COc1ccc(C(=O)NCC2(N(C)C)CCCCC2)cc1	inactive: 0.695%
Cc1cc(C(=O)NCC2(N3CCCCC3)CCCCC2)ccc1[N+](=O)[O-]	inactive: 5.98%
CCN1CCCC(OC(=O)C2(O)c3ccccc3C=Cc3ccccc32)C1 (configuration not stated)	inactive: 2.47%
O=C(NCC1(N2CCCCC2)CCCCC1)c1cccc(Br)c1	inactive: -5.83%
C=CCN1CCN(CCOC(=O)C(O)(c2ccccc2)c2ccccc2)CC1	inactive: -8.73%
O=C(NCC1(N2CCCCC2)CCCCC1)c1cc(F)c(F)cc1Cl	inactive: -3.53%
Cc1ccccc1C(=O)NCC1(N2CCCCC2)CCCCC1	inactive: -2.69%
CN(C)C1CCCC1OC(=O)C(O)(c1ccccc1)c1ccccc1 (configuration not stated)	inactive: -7.84%
CN(C)c1ccc(C(=O)NCC2(N(C)C)CCCCC2)cc1	inactive: -10.8%
